Protein sequences, listed by entry. Tags and fused reporters are not part of them.
UniProt P32300, whole entry: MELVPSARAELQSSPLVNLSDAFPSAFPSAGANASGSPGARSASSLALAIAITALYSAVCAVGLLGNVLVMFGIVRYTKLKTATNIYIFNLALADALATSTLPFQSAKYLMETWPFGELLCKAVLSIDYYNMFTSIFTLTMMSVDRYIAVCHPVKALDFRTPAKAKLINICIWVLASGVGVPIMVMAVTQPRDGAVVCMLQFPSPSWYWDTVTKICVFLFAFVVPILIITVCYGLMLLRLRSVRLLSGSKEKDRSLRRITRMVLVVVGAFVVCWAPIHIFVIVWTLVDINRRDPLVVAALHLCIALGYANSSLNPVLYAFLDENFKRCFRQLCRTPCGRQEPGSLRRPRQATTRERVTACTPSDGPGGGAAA

According to ChEMBL document CHEMBL1129480, “Design and synthesis of 1-aminocycloalkane-1-carboxylic acid-substituted deltorphin analogues: unique delta and mu opioid activity in modified peptides” (J Med Chem, 1996):

Target: Delta-type opioid receptor (Mus musculus, UniProt P32300)
Experiment: Inhibitory activity against Opioid receptor delta 1 of mouse vas deferens (MVD)
Assay type: tissue-based

Molecule `CC(C)[C@H](NC(=O)[C@H](CC(=O)O)NC(=O)[C@H](Cc1ccccc1)NC(=O)[C@@H](C)NC(=O)[C@@H](N)Cc1ccc(O)cc1)C(=O)N[C@H](C(=O)NCC(N)=O)C(C)C` [DELTORPHIN C] has an IC50 of 0.46 nM.
